Values of other authors as cited in patent publication US6699477B2, “EBV CTL epitopes” (The Council of the Queensland Institute of Medical Research, priority 1996, dated 2004).

Test system: HLA
Conditions: Table 4; cited from earlier work

RKCCRAKFKQLLQHYR
HLA Rest.: HLA Cw6
